We go through one substance from PMC3586668 (PLoS ONE, 2013).

Like-named read-outs stand apart in the source and are kept apart here.

The subject of series [1] is Caco-2 monolayers. As to conditions: conventional 21-day Caco-2 monolayer, cited from earlier work.
In series [2] the test system is rat jejunum. As to conditions: freshly excised rat jejunum, Ussing chamber model; cited from earlier work.
Series [3] has as its system Caco-2 monolayers. Nature of the series: Polypeptide transport across 3-day Caco-2 monolayers (ELISA). The class given is in vitro ADME, Human. The settings on record: 3-day Caco-2, apical-to-basolateral, room temperature, mean±SD n = 3; for Apparent Permeability (Papp) / Cumulative permeation (amount transported to basolateral chamber): 5 h; for Apparent Permeability (Papp): gentle shaking. As for the experimental part: Transport of three different macromolecular pharmaceutical peptides was studied across the Caco-2 monolayers at different loading concentrations. […] Different doses were selected for different polypeptides based upon the values reported in literature to not only approach therapeutic efficacy but also to provide a valid comparison with the results obtained in 21-day monolayer system. Polypeptides were incubated with Caco-2 monolayers for 5 hrs at room temperature with gentle shaking. TEER measurements were performed and samples were collected from basolateral chambers of the Caco-2 plates to determine total drug transport and apparent permeability at different concentrations.
For orientation: Caco-2 monolayers are a common model of the intestinal barrier.

The mark [4] stands for this setting: apical loading 0.3 mg (Table 1).

Take Bovine Insulin: the Apical-to-basolateral permeability in series [1] (highest reported value) is on record as 0.5±0.3 ×10^−6 cm/sec; in series [1] (lowest reported value), 1.6±0.4 ×10^−9 cm/sec. Moreover, in series [2], the “Permeability through the rat intestinal mucosa” value was 7.4±1.2 ×10^−6 cm/sec. Moreover, the “Apparent Permeability (Papp)” value is 5.4±2.9 10^−6 cm/s in series [3] (apical loading 0.05 mg/well), 4.2±0.9 10^−6 cm/s in series [3] (apical loading 0.15 mg/well), 4.0±1.2 10^−6 cm/s in series [3] (setting [4]) and 4.5±0.9 10^−6 cm/s in series [3] (apical loading 1.0 mg/well). Further, the “Cumulative permeation (amount transported to basolateral chamber)” value in series [3] (apical loading 0.05 mg/well) is 1.5 ± 0.8 µg; in series [3] (apical loading 0.15 mg/well), 3.5 ± 0.7 µg; in series [3] (apical loading 0.6 mg/well), 13.5 ± 4.0 µg; in series [3] (apical loading 1 mg/well), 24.9 ± 5.0 µg. In addition, the “% Transport in 5 hours” value in series [3] (apical loading 0.05 mg/well) stood at 3.0±1.6%; in series [3] (apical loading 0.15 mg/well), 2.3±0.5%; in series [3] (setting [4]), 2.3±0.7%; in series [3] (apical loading 1.0 mg/well) it was 2.5±0.5%.
